The assay has as its target rat mGluR5 (Rattus norvegicus (Rat), UniProt P31424). Briefly: cell-based.

Chains of the proteins cited; added tags and fusions are not shown. Residues count along the entry.
UniProt P31424, 21-1203: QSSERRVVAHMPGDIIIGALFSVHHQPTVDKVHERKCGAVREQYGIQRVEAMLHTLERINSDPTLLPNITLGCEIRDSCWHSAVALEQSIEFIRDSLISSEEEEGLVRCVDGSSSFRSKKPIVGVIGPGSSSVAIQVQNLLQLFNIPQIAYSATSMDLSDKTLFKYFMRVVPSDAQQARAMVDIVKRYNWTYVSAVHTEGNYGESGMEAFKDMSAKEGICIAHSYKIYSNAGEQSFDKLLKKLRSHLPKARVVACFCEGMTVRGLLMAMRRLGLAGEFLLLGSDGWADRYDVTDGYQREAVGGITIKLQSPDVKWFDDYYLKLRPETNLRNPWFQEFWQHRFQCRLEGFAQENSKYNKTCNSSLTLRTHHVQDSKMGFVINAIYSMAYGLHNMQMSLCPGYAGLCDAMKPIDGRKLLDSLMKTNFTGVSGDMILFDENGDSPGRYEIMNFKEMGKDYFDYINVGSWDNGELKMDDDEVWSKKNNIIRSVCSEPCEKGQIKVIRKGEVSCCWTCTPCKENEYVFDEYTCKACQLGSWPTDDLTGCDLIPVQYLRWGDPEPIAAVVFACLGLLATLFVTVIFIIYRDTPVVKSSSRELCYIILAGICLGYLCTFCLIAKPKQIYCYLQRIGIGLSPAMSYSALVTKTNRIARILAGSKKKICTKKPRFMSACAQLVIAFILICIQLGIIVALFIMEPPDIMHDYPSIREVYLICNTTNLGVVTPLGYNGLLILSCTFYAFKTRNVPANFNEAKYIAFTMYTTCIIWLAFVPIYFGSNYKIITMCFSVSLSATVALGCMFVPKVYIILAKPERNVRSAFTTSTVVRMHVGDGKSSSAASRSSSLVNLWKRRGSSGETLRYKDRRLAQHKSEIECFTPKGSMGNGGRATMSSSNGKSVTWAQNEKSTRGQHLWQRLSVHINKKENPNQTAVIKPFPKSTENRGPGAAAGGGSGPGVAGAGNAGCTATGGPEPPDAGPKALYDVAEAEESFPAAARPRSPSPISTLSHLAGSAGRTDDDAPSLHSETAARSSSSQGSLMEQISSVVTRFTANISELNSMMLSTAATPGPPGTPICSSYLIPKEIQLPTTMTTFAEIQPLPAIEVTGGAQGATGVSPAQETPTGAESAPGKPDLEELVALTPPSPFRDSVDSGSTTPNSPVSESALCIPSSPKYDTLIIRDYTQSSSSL

With `Cc1nc(NC(=O)c2cccc(Oc3cccnc3)c2)nn1C`, the IC50 is greater than 30 µM.

For the origin of these results see patent publication US8796295B2, “Substituted benzamide analogs as mGluR5 negative allosteric modulators and methods of making and using the same” (priority 2009, dated 2014).
